Source: PMC13213242, “A novel ψ–χ fusion protein for unravelling the contributions of χ to DNA replication and repair” (Nucleic Acids Research, 2026)

Molecular target: T1, single-stranded DNA-binding protein (SSB), two-hybrid fusion (E. coli, UniProt P0AGE0 1-178)
T1 sequence (looked up): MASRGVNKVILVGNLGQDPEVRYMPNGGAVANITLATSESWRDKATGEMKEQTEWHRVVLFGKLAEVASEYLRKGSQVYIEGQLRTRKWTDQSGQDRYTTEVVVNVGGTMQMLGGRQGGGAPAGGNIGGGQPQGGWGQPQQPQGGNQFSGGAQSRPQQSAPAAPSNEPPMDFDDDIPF
Experiment: cell-based or functional assay

B1: WT γ complex clamp loader (γ3δδ′ψχ) (complex, E. coli)
chain 1: MSYQVLARKWRPQTFADVVGQEHVLTALANGLSLGRIHHAYLFSGTRGVGKTSIARLLAKGLNCETGITATPCGVCDNCREIEQGRFVDLIEIDAASRTKVEDTRDLLDNVQYAPARGRFKVYLIDEVHMLSRHSFNALLKTLEEPPEHVKFLLATTDPQKLPVTILSRCLQFHLKALDVEQIRHQLEHILNEEHIAHEPRALQLLARAAEGSLRDALSLTDQAIASGDGQVSTQAVSAMLGTLDDDQALSLVEAMVEANGERVMALINEAAARGIEWEALLVEMLGLLHRIAMVQLSPAALGNDMAAIELRMRELARTIPPTDIQLYYQTLLIGRKELPYAPDRRMGVEMTLLRALAFHPRMPLPEPEVPRQSFAPVAPTAVMTPTQVPPQPQSAPQQAPTVPLPETTSQVLAARQQLQRVQGATKAKKE
chain 2: MIRLYPEQLRAQLNEGLRAAYLLLGNDPLLLQESQDAVRQVAAAQGFEEHHTFSIDPNTDWNAIFSLCQAMSLFASRQTLLLLLPENGPNAAINEQLLTLTGLLHDDLLLIVRGNKLSKAQENAAWFTALANRSVQVTCQTPEQAQLPRWVAARAKQLNLELDDAANQVLCYCYEGNLLALAQALERLSLLWPDGKLTLPRVEQAVNDAAHFTPFHWVDALLMGKSKRALHILQQLRLEGSEPVILLRTLQRELLLLVNLKRQSAHTPLRALFDKHRVWQNRRGMMGEALNRLSQTQLRQAVQLLTRTELTLKQDYGQSVWAELEGLSLLLCHKPLADVFIDG
chain 3: MRWYPWLRPDFEKLVASYQAGRGHHALLIQALPGMGDDALIYALSRYLLCQQPQGHKSCGHCRGCQLMQAGTHPDYYTLAPEKGKNTLGVDAVREVTEKLNEHARLGGAKVVWVTDAALLTDAAANALLKTLEEPPAETWFFLATREPERLLATLRSRCRLHYLAPPPEQYAVTWLSREVTMSQDALLAALRLSAGSPGAALALFQGDNWQARETLCQALAYSVPSGDWYSLLAALNHEQAPARLHWLATLLMDALKRHHGAAQVTNVDVPGLVAELANHLSPSRLQAILGDVCHIREQLMSVTGINRELLITDLLLRIEHYLQPGVVLPVPHL
chain 4: MTSRRDWQLQQLGITQWSLRRPGALQGEIAIAIPAHVRLVMVANDLPALTDPLVSDVLRALTVSPDQVLQLTPEKIAMLPQGSHCNSWRLGTDEPLSLEGAQVASPALTDLRANPTARAALWQQICTYEHDFFPRND
chain 5: MKNATFYLLDNDTTVDGLSAVEQLVCEIAAERWRSGKRVLIACEDEKQAYRLDEALWARPAESFVPHNLAGEGPRGGAPVEIAWPQKRSSSRRDILISLRTSFADFATAFTEVVDFVPYEDSLKQLARERYKAYRVAGFNLNTATWK
  rate of β-clamp closing on DNA-SSB (stopped-flow, β-AF488_(2) fluorescence): γ complex lacking χ (Δχ) against WT γ complex: ~5 fold
